{
  "source": "patent US10766873B2",
  "about": "“Zuclopenthixol hydrochloride derivatives and Ebselen derivatives as ErbB2 inhibitors” (Centre National de la Recherche Scientifique (CNRS), priority 2016, dated 2020)",
  "key": {"[1]": {"molecular_target": "FERM/ErbB2 interaction (Ezrin FERM domain / juxtamembrane ErbB2 peptide) (Homo sapiens, UniProt P04626)", "assay": "AlphaScreen competition assay, FERM/ErbB2 interaction", "type": "binding", "conditions": "read-out: IC50 FERM/ErbB2 interaction, tested form: HCl"}, "[2]": {"molecular_target": "FERM/CD44 interaction (Homo sapiens, UniProt P16070)", "assay": "AlphaScreen counter screen, FERM/CD44 interaction", "conditions": "tested form: HCl", "excerpt": "To validate that the Zuclopenthixol hydrochloride (ZU) and its derivatives interact with the juxtamembrane domain of ErbB2, we first analyzed in AlphaScreen® their efficiency to inhibit FERM/ErbB2 interaction in a dose-dependent manner and determined IC50 value. Furthermore, to test the selectivity of those compounds, we tested their ability to disrupt the interaction between the FERM domain and the known ERM binding motif contained in the juxtamembrane region of CD44 as a control.\nAlphaScreen® technology was used to assess the interaction between the Ezrin binding motif (EBM) contained in the juxtamembrane portions of ErbB2 or CD44 with the Ezrin FERM domain. For this purpose the Ezrin FERM domain in fusion with Glutathione-S-Transferase (GST) has been coupled to GSH-coated acceptor beads. Biotinylated ErbB2 peptide encoding the Ezrin binding motif (amino acid 674 to 689: biotin-ILIKRRQQKIRKYTMRRL, 26 aa) or the juxtamembrane region of CD44 (biotin-[…] ), for the counter screen have been synthesized and coupled to streptavidin-covered donor beads. […]\nThe reaction was performed using white 384-well Optiplates (PerkinElmer, Whalham, Mass., USA) in 20 μl (total reaction volume) in a reaction buffer containing PBS, pH 7.4, 5 mM MgCl2 and 0.02% CHAPS. […] Light signal was detected with the EnVision® multilabel plate reader (PerkinElmer). […]"}, "[3]": {"tested_on": "BT474", "assay": "MTT cell proliferation, BT474", "conditions": "tested form: HCl", "description": "(§1) We then analyzed the ability of ZU and EB1 and their derivatives to decrease the ErbB2-dependent cell proliferation. We used the ErbB2-overexpressing human breast cancer cell lines SKBR3 and BT474, as well as two non ErbB2-dependent breast cancer cell lines MCF7 and MDA-MB-231 and normal human endothelial cells (HBMEC) as a control, to discard compounds presenting non-specific toxic effects.\n(§2) SKBR3, BT474, MCF-7, MDA-MB-231 and HBMEC cells were treated with the compounds as indicated, and cell proliferation was determined each day during 3 days using an MTT assay. Non treated cells were included as a negative control.\nA solution of ZU in cis conformation was mixed to a solution of ZU in trans conformation (1:1) to obtain ZU in a 50/50 cis/trans conformation and their respective effects on ErbB2 activation and ErbB2-dependent cell proliferation were analyzed as previously by dot blot analysis using an anti-phosphotyrosine antibody (clone 4G10) and by MTT assays in the ErbB2-overexpressing breast cancer cell line SKBR3, BT474, or HBMEC as a control."}, "[4]": {"tested_on": "HBMEC", "assay": "MTT cell proliferation, HBMEC control cells", "type": "cell-based, human", "conditions": "tested form: HCl", "description": "as §1, §2\n(§3) The WT, V777L or V842I ErbB2-transfected cells were treated with 5 or 10 μM of ZU and cell proliferation was determined each day during 3 days using an MTT assay. Non transfected cells were included as a negative control.\n(§4) The WT, V777L or V842I ErbB2-transfected cells were treated with 5 or 10 μM of EB1 and cell proliferation was determined each day during 3 days using an MTT assay. Non transfected cells were included as a negative control."}, "[5]": {"molecular_target": "V659E ErbB2 (Homo sapiens, UniProt P04626, V659E)", "assay": "Western blot pY1248, V659E ErbB2 in transfected HBMECs", "conditions": "0, 5, 10 or 20 μM, 24 h; tested form: HCl", "description": "HBMECs cells were transfected with plasmids encoding WT, ΔEBM (a form of ErbB2 carrying mutations in the juxtamembrane domain and unable to bind to the Ezrin FERM domain), V659E or p95 ErbB2 and treated with 0, 5, 10 or 20 μM ZU for 24 h. ErbB2 activation was then analyzed by western blot analysis using a phospho-ErbB2-specific antibody (pY1248) and a tubulin antibody as a loading control. Histograms show optical density quantification."}, "[6]": {"tested_on": "SKOV3", "assay": "MTT cell proliferation, SKOV3", "conditions": "3, 5 and 7 μM, days 2 and 3, serum 1%; tested form: HCl", "description": "The ErbB2-overexpressing ovarian cancer cell line SKOV3 and MDAMB-231, a non ErbB2-overexpressing breast cancer cell line were treated with 3, 5 or 7 μM of ZU and cell proliferation was determined each day during 3 days using an MTT assay. Non treated cells were included as a negative control."}, "[7]": {"tested_on": "SKOV3", "assay": "Soft agar colony formation, SKOV3", "conditions": "5 or 10 μM, 6 weeks; tested form: HCl", "description": "A bottom layer of 0.8% agarose in DMEM supplemented with 2% SVF and penicillin/streptomycin was added to 24 well plates before seeding 15.10^3 SKOV3 cells/well in a 0.6% agarose top layer. Cells were left untreated or treated with 5 or 10 μM ZU or 5 μM AG1478 (a non-specific ErbB2 kinase inhibitor) as a positive control. Treatments were renewed 3 times a week. After 6 weeks, the number of colonies and their size were quantified using image J software. The colony formation is illustrated for each condition. Data are presented as mean±SEM"}, "[8]": {"molecular_target": "V777L ErbB2 (Homo sapiens, UniProt P04626, V777L)", "assay": "Western blot pY1248, V777L ErbB2 in transfected HBMECs", "conditions": "0, 5, 10 or 20 μM, 48 h; tested form: HCl", "description": "(§5) HBMECs cells were transfected with plasmids encoding WT, V777L or V842I and treated with 0, 5, 10 or 20 μM ZU or EB1 for 48 h. ErbB2 activation was then analyzed by western blot analysis using a phospho-ErbB2-specific antibody (pY1248) and a total ErbB2 antibody. Histograms show optical density quantification."}, "[9]": {"molecular_target": "V842I ErbB2 (Homo sapiens, UniProt P04626, V842I)", "assay": "Western blot pY1248, V842I ErbB2 in transfected HBMECs", "conditions": "0, 5, 10 or 20 μM, 48 h; tested form: HCl", "description": "as §5"}, "[10]": {"tested_on": "V777L ErbB2-transfected cells", "assay": "MTT cell proliferation, V777L ErbB2-transfected HBMEC", "conditions": "10 μM, day 3; tested form: HCl", "description": "as §3, §4"}},
  "note": "Like-named read-outs stand apart in the source and are kept apart here.",
  "data": [
    {"molecule": "OCCN1CCN(CC/C=C2/c3ccccc3Sc3ccc(Cl)cc32)CC1", "values": [
      {"measurement": "IC50", "setting": "[1]; 1 h", "value": 50, "unit": "µM"},
      {"measurement": "IC50", "setting": "[1]; 24 h", "value": 9.8, "unit": "µM"},
      {"measurement": "effect on FERM/CD44 interaction", "setting": "[2]; 1 h", "value": "did not interfere"},
      {"measurement": "inhibition of FERM/CD44 interaction", "setting": "[2]; 24 h", "value": 53.32, "unit": "%"},
      {"measurement": "reduction of BT474 proliferation", "setting": "[3]; 5 μM, day 2 and 3", "value": 50, "unit": "%"},
      {"measurement": "Cell proliferation at d 3 BT474 Max inhibition, %", "setting": "[3]; day 3", "value": 31.5, "unit": "%"},
      {"measurement": "EC50", "setting": "[3]; read-out: Cell proliferation at d 3 BT474 EC50, day 3", "value": 6.8, "unit": "µM"},
      {"measurement": "IC50", "setting": "[3]; read-out: IC50 BT474 proliferation", "value": 7, "unit": "µM"},
      {"measurement": "effect on HBMEC proliferation (in words)", "setting": "[4]; 5 μM", "value": "without any effect"},
      {"measurement": "effect on proliferation of non-transfected HBMECs cells (in words)", "setting": "[4]; 10 μM, day 3", "value": "no effect"},
      {"measurement": "activation of V659E ErbB2 (in words)", "setting": "[5]", "value": "decreased the activation"},
      {"measurement": "decrease of the proliferation of SKOV3", "setting": "[6]", "value": 50, "unit": "%"},
      {"measurement": "formation of SKOV3 microcolonies (in words)", "setting": "[7]", "value": "totally inhibited"},
      {"measurement": "ErbB2 V777L activation (in words)", "setting": "[8]", "value": "potently decrease"},
      {"measurement": "ErbB2 V842I activation (in words)", "setting": "[9]", "value": "potently decrease"},
      {"measurement": "decrease of the proliferation of V777L transfected HBMEC", "setting": "[10]", "value": 35, "unit": "%"}
    ]}
  ]
}
